Test system: Sprague-Dawley rats
Details: 10 mg/kg i.p., p > 0.05

For `O=C(NCCc1cccc(Cl)c1)Nc1ccc(Cl)cc1` [Compound 31, 3-(4-Chlorophenyl)-1-[2-(3-chlorophenyl)ethyl]urea], the inactive lever response was “did not significantly affect”.

From article PMC8969894 (Journal of medicinal chemistry, 2021)
